Experimental data: ChEMBL document CHEMBL1641384, “QSAR of adenosine receptor antagonists: Exploring physicochemical requirements for binding of pyrazolo[4,3-e]-1,2,4-triazolo[1,5-c]pyrimidine derivatives with human adenosine A(3) receptor subtype” (Bioorg Med Chem Lett, 2011)

Amino acid sequences for entries named in this document (tags omitted).
UniProt P0DMS8, whole entry: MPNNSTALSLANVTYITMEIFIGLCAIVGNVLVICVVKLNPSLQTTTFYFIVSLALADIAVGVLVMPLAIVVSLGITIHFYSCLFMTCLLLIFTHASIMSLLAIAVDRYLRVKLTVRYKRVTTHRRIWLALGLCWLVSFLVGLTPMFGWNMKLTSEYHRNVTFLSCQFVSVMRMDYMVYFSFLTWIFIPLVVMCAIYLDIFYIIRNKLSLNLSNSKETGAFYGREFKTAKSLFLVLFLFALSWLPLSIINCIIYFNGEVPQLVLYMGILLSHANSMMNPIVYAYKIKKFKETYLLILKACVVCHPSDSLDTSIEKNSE

Target: Adenosine receptor A3 (Homo sapiens, UniProt P0DMS8)
Assay: Displacement of [3H]MRE3008-F20 from human adenosine A3 receptor expressed in CHO cells after 120 mins
Format: cell-based

- Ki: 0.603 nM
Compound: CCCn1cc2c(nc(NC(=O)Nc3ccc(OC)cc3)n3nc(-c4ccco4)nc23)n1
